For seven compounds, activity change, negative = inhibition results are on record in PubChem BioAssay AID1259421 (Broad Institute, 2018).

“And” between values parts separate entries of the source, which are not always exact repeats. Equal values may be shown once. The entries are a selection whose mix differs from that of the whole data set. The source made the active and inactive calls. Rule as the data show it: active = activity change below about -70%; inconclusive = no clear call, values can overlap the other calls; inactive = above that.

This test in a line: T. gondii ME49Luc in HeLa cells, luciferase assay, 72 h, no IFN-y (AID 1259421). Particulars: hits give low values, concentration not given here.
Turning to `O=P1(N(CCCl)CCCl)OCCCN1CCCl` (configuration not stated), the activity change, negative = inhibition is inactive: 11.8%.
Next, `CN(C(=O)Cc1ccc(Cl)c(Cl)c1)[C@H]1CC[C@@]2(CCCO2)C[C@@H]1N1CCCC1`: inactive: 10.8%; `CN(C)C1(c2ccccc2)CCC2(CC1)OCCc1c2[nH]c2ccc(F)cc12` (configuration not stated): inactive: -34.2%; `O=P(O)(O)F`: inactive: -0.0478%.
Turning to `CN(C(=O)Cc1ccc(Cl)c(Cl)c1)[C@H]1CCCC[C@@H]1N1CCCC1`, the activity change, negative = inhibition was inactive: 25% and inactive: 7.73% and inactive: 17.2%.
Next, `O=C(O[C@H]1CN2CCC1CC2)C1NCc2ccccc2[C@@H]1c1ccccc1` (some centres not stated): inactive: -1.42%.
On to `CN(C(=O)Cc1ccc(Cl)c(Cl)c1)C1CCCCC1N1CCCC1` (configuration not stated), for which the activity change, negative = inhibition is inactive: 8.47%.
